Reference: ChEMBL document CHEMBL1135721, “Pyridophens: binary pyridostigmine-aprophen prodrugs with differential inhibition of acetylcholinesterase, butyrylcholinesterase, and muscarinic receptors” (2002)

Columns and labels:
[1] = target: Muscarinic acetylcholine receptor (UniProt P08172+P08173+P08912+P11229+P20309); experiment: Inhibition of [3H]NMS (N-[3H]methylscopolamine) binding to Muscarinic acetylcholine receptor (mAChR)
Acetylcholinesterase = Acetylcholinesterase (Bos taurus, UniProt P23795); experiment: Inhibitory activity against Acetylcholinesterase (AChE)
Butyrylcholinesterase [2] = target: T1, Butyrylcholinesterase (Equus caballus, UniProt Q9N1N9); experiment: Inhibitory activity against Butyrylcholinesterase (BChE)
Butyrylcholinesterase [3] = target: T1, Butyrylcholinesterase; experiment: 50 percent inhibitory concentration of Butyrylcholinesterase (BChE); settings: read-out: I 50

CN(C)C(=O)Oc1ccc[n+](C)c1CO.[I-]
Ki [1]: > 100 µM

CN(C)C(=O)Oc1cccnc1COC(=O)C(C)(c1ccccc1)c1ccccc1
Ki (Acetylcholinesterase): 38.8 µM
Ki [1]: 42 µM
Ki (Butyrylcholinesterase [2]): 8.51 µM

CN(C)C(=O)Oc1cccnc1CO
Ki (Acetylcholinesterase): 52.1 µM

CN(C)C(=O)Oc1ccc[n+](C)c1COC(=O)C(C)(c1ccccc1)c1ccccc1
Ki (Acetylcholinesterase): 5.62 µM
IC50 (Butyrylcholinesterase [3]): 0.17 µM
Ki (Butyrylcholinesterase [2]): 3.14 µM

CN(C)C(=O)Oc1ccc[n+](C)c1COC(=O)C(C)(c1ccccc1)c1ccccc1.COS(=O)(=O)[O-]
Ki [1]: 4.7 µM
